These results are taken from US7888338B2, “7-(2-cyclohexylidene-ethylidene)-spiro[4.5]decanes” (K.U. Leuven Research & Development, priority 2004, dated 2011).

The test system of the assay is MCF-7 cells. As to the kind of experiment: Measurement of cell proliferation, breast carcinoma cells MCF-7, [3H]thymidine incorporation. The format is cell-based. Conditions: cell proliferation ([3H]thymidine incorporation), relative to control 1α,25(OH)2D3 = 100. The procedure:
Selected compounds of the present invention are evaluated for their effect on cell proliferation. Malignant MCF-7 cells are cultured in DMEM nutrient mix F12 (HAM) medium which is supplemented with 10% heat inactivated FCS, glutamine (2 mM), penicillin (100 units/mL) and streptomycin (0.1 mg/mL). The cultures are maintained at 37° C. in an atmosphere of humidified air containing 5% CO2. The MCF-7 cells are seeded at approximately 5×10^3 cells/well in the DMEM modified medium in a 96-well microtiter plate. […]. Finally, 1 μCi of [^3H]thymidine is added to each well and the cells are harvested after a further 4 hour incubation period. The cells are harvested with a Parckard Harvester and the cell count measured by a Packard Topcount System.
On the technique in general: Incorporation of labelled thymidine or its analogues reports DNA synthesis.

`C=C1/C(=C\C=C2/CCC[C@]3(C)[C@@H]([C@H](C)CCCC(C)(C)O)CC[C@@H]23)C[C@@H](O)C[C@@H]1O` [1α,25(OH)2D3, 1α,25-dihydroxyvitamin D3] displayed an MCF-7 of 100.
